Where two headings read alike, the source gives them in different places.
Settings: edoxaban 50 µg vs 60 mg

## CN1CCc2nc(C(=O)N[C@@H]3C[C@@H](C(=O)N(C)C)CC[C@@H]3NC(=O)C(=O)Nc3ccc(Cl)cn3)sc2C1 [Edoxaban, edoxaban]
At baseline
  dose-normalized AUC∞ GMR, microdose vs therapeutic dose: 0.74
At carbamazepine steady-state
  dose-normalized AUC∞ GMR, microdose vs therapeutic dose: 0.91

— article PMC12022901 (Frontiers in Pharmacology, 2025)
